Data published in paper PMC8336721 (ACS chemical neuroscience, 2020).

Protein sequences, listed by entry. Tags and fused reporters are not part of them. Lines headed by an entry give the natural chain unless they say otherwise; changes in a name come on top.
UniProt P41146: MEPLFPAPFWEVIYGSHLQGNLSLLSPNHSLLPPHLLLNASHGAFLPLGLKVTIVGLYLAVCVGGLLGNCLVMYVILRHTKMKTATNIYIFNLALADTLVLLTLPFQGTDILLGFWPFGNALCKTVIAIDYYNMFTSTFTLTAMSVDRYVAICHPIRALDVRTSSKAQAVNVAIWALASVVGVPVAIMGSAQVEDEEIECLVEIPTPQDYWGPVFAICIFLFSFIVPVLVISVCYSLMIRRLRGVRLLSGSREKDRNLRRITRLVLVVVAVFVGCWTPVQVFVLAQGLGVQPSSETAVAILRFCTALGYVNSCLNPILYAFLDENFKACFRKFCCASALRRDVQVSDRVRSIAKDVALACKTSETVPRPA
UniProt P33535, whole entry: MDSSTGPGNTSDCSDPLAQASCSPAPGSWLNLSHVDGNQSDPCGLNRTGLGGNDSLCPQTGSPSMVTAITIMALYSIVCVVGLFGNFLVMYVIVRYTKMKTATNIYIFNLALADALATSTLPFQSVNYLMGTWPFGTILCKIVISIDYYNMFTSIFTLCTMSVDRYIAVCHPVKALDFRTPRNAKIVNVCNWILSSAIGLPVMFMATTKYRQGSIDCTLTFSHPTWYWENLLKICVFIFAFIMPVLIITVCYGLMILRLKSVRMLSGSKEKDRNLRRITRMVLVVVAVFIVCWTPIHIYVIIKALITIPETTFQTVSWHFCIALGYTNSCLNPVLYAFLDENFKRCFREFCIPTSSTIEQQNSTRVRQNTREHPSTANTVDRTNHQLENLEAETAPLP

What was measured:
NOR = NOR (Homo sapiens, UniProt P41146); assay: [35S]GTPγS binding to membranes of CHO cells stably expressing the NOR; assay type: biochemical; conditions: % of maximal [35S]GTPγS binding of reference full agonist N/OFQ
MOR = MOR (Rattus norvegicus, UniProt P33535); assay: [35S]GTPγS binding to membranes of CHO cells stably expressing the MOR; assay type: biochemical

**Q.** For `CN(C(=O)/C=C/c1ccoc1)[C@@H]1CC[C@@]2(O)[C@H]3Cc4cccc5c4[C@@]2(CCN3CC2CC2)[C@H]1O5` [42B], which “Maximal Effect, NOR” value (NOR) is on record?
**A.** 110.9 ± 7.4%

**Q.** With `C[C@@H](NC(=O)[C@@H](N)Cc1ccc(O)cc1)C(=O)NCC(=O)N(C)[C@@H](Cc1ccccc1)C(=O)NCCO` [DAMGO] as the compound, how does the EC50 (MOR) read?
**A.** 6.3 ± 0.43 nM
